Results: patent US20230228656A1, “Functionalized Blood Sampling Device and Method for PEth Measurement” (CAPITAINER AB, priority 2020, published 2023)

Assay: Resistance of the salts to the temperature during production

Substance: sodium metavanadate [NaVO3]
- temperature stability: withstand the temperature during production
